## Yeast mating assay B: variants of the scFv Ab-14

Data: MIT Lincoln Laboratory AlphaSeq set, Li et al. 2023, doi:10.1038/s41467-023-39022-2, as distributed in FLAb.

All variants were tested on one target, the spike HR2 peptide PDVDLGDISGINAS (SARS-CoV-2).

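This is the validation round: designs drawn from the data on random variants, tested in the same kind of assay. Several design methods are mixed in this list. Affinity was read by AlphaSeq, a pooled yeast mating assay with surface-displayed partners. After mating in shaken culture at 30 °C for 16 h, diploids were selected and their barcode pairs sequenced. Each replicate has its own calibration line, from reference interactions of the BCL2 family. Each pool was mated in six replicate cultures.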

Each scFv is VH, a (GGGGS)3 linker, VL, as in the parent Ab-14, and differs from it in the CDRs of the light chain only.
VH: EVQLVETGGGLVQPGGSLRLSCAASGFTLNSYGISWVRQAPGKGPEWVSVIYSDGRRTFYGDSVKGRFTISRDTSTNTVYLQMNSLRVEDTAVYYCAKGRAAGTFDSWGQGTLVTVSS
VL: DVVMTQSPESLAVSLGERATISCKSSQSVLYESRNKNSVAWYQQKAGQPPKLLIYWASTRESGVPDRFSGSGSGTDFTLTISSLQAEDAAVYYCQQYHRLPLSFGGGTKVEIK

Variants are written as CDR1, CDR2 and CDR3 of the light chain (limits as in the source). Parent: KSSQSVLYESRNKNSVA, WASTRES, QQYHRLPLS.
The read-out is the apparent dissociation constant on a log10 scale (nM): the lower, the stronger.
The mean shown is taken over the replicates in which the pair was detected.
"not detected" means that the variant was in the library but no mating with the target was seen in any replicate; the authors take this as a sign of poor binding, and no number exists.

| CDR-L1 | CDR-L2 | CDR-L3 | log10 Kd (nM), mean | replicates with signal | empty controls |
|---|---|---|---|---|---|
| QLAVDRGQEYKMGAAIA | GKTTLED | QQYAMLPLS | 1.28 | 6 of 6 | 1 of 18 |
| KIGMTLNTLMRKKNNVA | DLVERAN | QQYFRLPLS | 0.40 | 6 of 6 | 0 of 18 |
| KSSQSTLEESVNKNSVA | HASTRES | QQYHRLPLS | 0.37 | 6 of 6 | 1 of 18 |
| KLYQSQLYESRMKNSVA | NASQRES | QQYHRLPLS | 0.23 | 6 of 6 | 2 of 18 |
| HITYGMMVHGRHGSSIA | QAETRAK | QQYDRLPLI | 1.68 | 6 of 6 | 0 of 18 |
| KLTMITGLEKVQGNNVA | EMETRER | QQYNRLPLS | 0.85 | 6 of 6 | 0 of 18 |
| HLSWVVLYESRNKNSVA | NASTREV | QQYHRLPLS | 0.21 | 6 of 6 | 1 of 18 |
| HITSNMFGTIGVESNVA | ETNTLLV | QQYSKLPLM | 2.14 | 6 of 6 | 0 of 18 |
| HISYMDGHDGKNIHNIA | DTGVTSR | QQYSRLPLI | 0.11 | 6 of 6 | 0 of 18 |
| TISQSAQQESHNKNSVA | DLNVRGS | QQYDRLPLS | 1.77 | 6 of 6 | 1 of 18 |
| KLSMFHQVESINKSNVA | EMVTRES | QQYDRLPLS | 1.49 | 5 of 6 | 0 of 18 |
| KVSFSVLYESRNKNSVA | EASTRES | QQYHRLPLS | 0.39 | 6 of 6 | 2 of 18 |
| KMSQEAMMLSRNQNSVA | EASTREQ | QQYHRLPLS | 0.43 | 6 of 6 | 0 of 18 |
| KSSQSVNYESRNKNSVA | WASTRES | QQYNRLPLS | 1.63 | 2 of 6 | 0 of 18 |
| KSSFSYLYESMNKNSVA | NGSTRES | QQYHRLPLS | -0.26 | 6 of 6 | 1 of 18 |
| KSSQSVLYESTNKNSVA | SASTRES | QQYHRLPLS | 0.29 | 6 of 6 | 0 of 18 |
| SMIPFDNQIMKGTNNIA | HTSVRAS | QQYMRLPLV | 0.50 | 6 of 6 | 3 of 18 |
| KVSEFMRGLMQRKDSIA | DNETRGN | QQYDRLPLS | 1.81 | 6 of 6 | 0 of 18 |
| KISIGVWGGDRNKNSVA | DASTRES | QQYHRLPLS | 0.11 | 6 of 6 | 0 of 18 |
| KSSQSVLTESRNKNSVA | WARTRES | QQYHRLPLS | 4.08 | 1 of 6 | 0 of 18 |
| KLSCSELYESRNKNSVA | EASTRES | QQYHRLPLS | 0.09 | 6 of 6 | 0 of 18 |
| MISGAEYGLGMDYANVA | HGQMRED | QQYQRIPLM | 0.25 | 6 of 6 | 1 of 18 |
| KLQQSTLYESRNKNSVA | DASTRES | QQYHRLPLS | -0.03 | 6 of 6 | 0 of 18 |
| KLSQSVLYESRMKNSVA | NASTRLS | QQYHRLPLS | 0.16 | 6 of 6 | 0 of 18 |
| KSDQSVLYESRNKNSVA | WASTRES | QAYHRLPLL | not detected | 0 of 6 | 0 of 18 |
| KVSQSVLGEERNKNSVA | DASTRES | QQYHRLPLS | 0.05 | 6 of 6 | 3 of 18 |
| MIYGAHMELGRAANSIA | DNVTRYD | QQYERLPLS | 2.04 | 6 of 6 | 1 of 18 |
| KTEVSQDYESRNQNSVA | NASERES | QQYHRLPLS | -0.02 | 6 of 6 | 2 of 18 |
| QLQLQPLFGAQAQSSIA | DVSEADM | QQYARLPLH | 1.91 | 4 of 6 | 1 of 18 |
| KLSQSWGGEWRNKNSVA | HASTREQ | QDYHRLPLS | 0.40 | 6 of 6 | 0 of 18 |
| KSSPSVIYESRNENSVA | SASKRES | QQYHRLPLS | 0.11 | 6 of 6 | 0 of 18 |
| KRSQSPLYESRNKNSVA | FASTREM | QQCHRLPLS | not detected | 0 of 6 | 0 of 18 |
| KLGAATRFESSNKDSIA | NNSTREE | QQYHRLPLS | 0.70 | 6 of 6 | 2 of 18 |
| MVYQAAMMGTSARNSIA | NAEMRPD | QQYHRLPLI | 0.18 | 6 of 6 | 2 of 18 |
| HMSMLTLGGMRARNSVA | QMTTREN | QQYDRLPLA | 0.82 | 5 of 6 | 0 of 18 |
| KVSQSNLYESRNKNSVA | NASTREQ | QQYHRLPLS | -0.11 | 6 of 6 | 0 of 18 |
| KLQQSELYESRNKNSVA | EASQRES | QQYHRLPLS | 0.95 | 6 of 6 | 0 of 18 |
| KVSQSQLYESRNKNSVA | GASTRES | QQYHRLTLS | not detected | 0 of 6 | 0 of 18 |
| KSSQSVPYESRNKNSVA | NASTRES | QQYHRLPLS | 0.54 | 12 of 12 | 2 of 36 |
| QLENDMTMNQGTRHNIA | EATVIAP | QQYHRLPII | 0.78 | 6 of 6 | 1 of 18 |
| KSSQAELYESRHKNSVA | NASYRED | QQYHRLPLS | 0.44 | 6 of 6 | 0 of 18 |
| KISQSVLYESSNKNSVA | WASTRES | QQYHRLPLS | 0.49 | 6 of 6 | 0 of 18 |
| SISGFMKSLAAHHNSVA | DMTNRED | QQYDRLPLS | 0.20 | 6 of 6 | 1 of 18 |
| KLRQSWLYESRNQNSVA | NASTRES | QQYHRLPLS | -0.41 | 6 of 6 | 1 of 18 |
| TLADVTRMESNKKSSIA | DMSNRAD | QQYHRLPIS | 1.29 | 6 of 6 | 1 of 18 |
| KSSQSVLYESTNKNSVA | WASTRES | QQDHGLPLS | not detected | 0 of 6 | 0 of 18 |
| KLSFSHQVESINKSNVA | EMVTRES | QQYHRLPLS | 1.42 | 6 of 6 | 1 of 18 |
| KMRQSVLYISRNWNSVA | WASTRAF | QRYHRLPLS | not detected | 0 of 6 | 0 of 18 |
| KSSQGVLYESTNKNSVA | QASTRES | QQYVRLPLS | 0.25 | 6 of 6 | 1 of 18 |
| KLRQVTGYESYSKNSVA | QTSTRAS | QDYHRLPLS | 1.18 | 6 of 6 | 0 of 18 |
| KYPQSELYESRNQNSVA | EASQREE | QQYHRLPLS | 0.10 | 6 of 6 | 0 of 18 |
| HSSPSVLYESRNGNSVA | NASTREE | QQYHRLPLS | 0.86 | 6 of 6 | 1 of 18 |
| KSSFSYLYESGNKNSVA | EASTRES | QQYHRLPLS | 0.47 | 6 of 6 | 0 of 18 |
| KIAMSMNLTSHHINSVA | QSETRED | QQYNHLPLS | 1.62 | 6 of 6 | 0 of 18 |
| KSSQSVLYESPFKNSVA | WASTRES | QQYHRLPLS | 1.69 | 6 of 6 | 3 of 18 |
| KLPQSQLYESRNKNSVA | HASTRES | QQYHRLPLS | -0.01 | 6 of 6 | 1 of 18 |
| HISYSMQHLSKNKNSVA | NQQTRES | QQYHRLPLS | 0.85 | 6 of 6 | 0 of 18 |

The authors' rule: three or more of the six replicates give a measured affinity, fewer mean a poor binder.
A sequence measured in both rounds can read differently, since the two assays cover different ranges.
Empty control strains, which show no peptide, gave a signal in 4% of pairings with all light chain designs; the median was 2.64 and 95% of these signals were weaker than 1.59. No background was subtracted. Also given: how often the same scFv was detected with the empty control strains.
Of ten entries with the parent sequence, four were seen in most replicates (averages 0.34 to 2.37), three in one and three in none, so single entries are noisy.
Where one sequence has several entries in the source, the replicates are pooled.